This passage reports EC50 and IC50 results from ChEMBL document CHEMBL1201862, “PubChem BioAssay data set” (2004).

The chains behind the UniProt entries cited, without tags or fusion partners. Where a name states a change or a piece, a line headed by the entry shows the natural chain unless it says otherwise.
UniProt P35372, whole entry: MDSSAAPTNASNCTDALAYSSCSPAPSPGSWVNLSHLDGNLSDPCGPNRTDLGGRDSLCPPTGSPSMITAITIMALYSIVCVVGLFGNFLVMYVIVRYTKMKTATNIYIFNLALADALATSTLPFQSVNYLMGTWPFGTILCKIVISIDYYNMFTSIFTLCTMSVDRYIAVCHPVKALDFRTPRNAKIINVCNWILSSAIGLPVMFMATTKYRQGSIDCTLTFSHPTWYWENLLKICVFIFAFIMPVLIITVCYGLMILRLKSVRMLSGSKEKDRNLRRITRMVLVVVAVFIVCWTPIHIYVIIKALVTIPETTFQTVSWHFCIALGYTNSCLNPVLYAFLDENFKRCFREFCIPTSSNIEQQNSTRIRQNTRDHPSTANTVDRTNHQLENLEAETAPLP
UniProt P35363, whole entry: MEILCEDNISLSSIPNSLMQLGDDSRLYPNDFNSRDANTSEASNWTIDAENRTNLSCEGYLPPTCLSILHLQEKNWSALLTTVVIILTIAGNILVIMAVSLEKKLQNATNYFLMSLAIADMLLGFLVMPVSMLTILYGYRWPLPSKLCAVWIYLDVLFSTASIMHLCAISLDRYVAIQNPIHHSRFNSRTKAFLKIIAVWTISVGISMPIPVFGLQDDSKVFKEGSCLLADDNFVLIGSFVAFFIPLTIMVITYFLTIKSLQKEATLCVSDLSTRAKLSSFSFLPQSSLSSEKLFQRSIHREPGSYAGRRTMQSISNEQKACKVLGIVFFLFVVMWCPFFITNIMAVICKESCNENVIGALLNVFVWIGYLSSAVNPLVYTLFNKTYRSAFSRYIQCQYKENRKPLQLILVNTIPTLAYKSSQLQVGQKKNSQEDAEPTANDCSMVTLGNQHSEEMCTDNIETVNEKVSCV
UniProt P54578: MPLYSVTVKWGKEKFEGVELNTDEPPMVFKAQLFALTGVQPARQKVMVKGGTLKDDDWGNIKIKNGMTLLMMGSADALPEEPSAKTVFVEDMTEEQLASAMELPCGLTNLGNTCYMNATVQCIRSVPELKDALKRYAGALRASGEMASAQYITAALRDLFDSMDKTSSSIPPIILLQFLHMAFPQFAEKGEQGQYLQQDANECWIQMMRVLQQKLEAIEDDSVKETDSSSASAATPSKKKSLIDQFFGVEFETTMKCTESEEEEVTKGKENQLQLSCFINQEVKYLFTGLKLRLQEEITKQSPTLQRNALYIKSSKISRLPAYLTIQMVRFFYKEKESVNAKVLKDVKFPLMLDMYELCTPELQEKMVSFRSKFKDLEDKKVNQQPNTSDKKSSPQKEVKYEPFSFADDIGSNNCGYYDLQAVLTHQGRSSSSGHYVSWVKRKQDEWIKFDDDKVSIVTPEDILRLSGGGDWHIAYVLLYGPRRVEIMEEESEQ

Where a name gives a salt, the structure may show the parent alone. Activity calls are given as the source filed them.

Assay [1] deals with Mu-type opioid receptor (Homo sapiens, UniProt P35372). The assay is classed as functional, cell-based.
Assay [2] deals with 5-hydroxytryptamine receptor 2A (Mus musculus, UniProt P35363). The assay is classed as functional, cell-based.
Assay [3] concerns the target Ubiquitin carboxyl-terminal hydrolase 14 (Homo sapiens, UniProt P54578).
Assay [4] deals with Streptococcus sp. 'group A'. Kind of assay: Streptococcus pyogenes SK(-)GAS viability under kanamycin – luminescence, BacTiterGlo, confirmation, counter-screen for streptokinase expression inhibitor project, dose response (AID 1900). The format is functional, organism-based. A general note: The purpose of a counterscreen is to sort out artefacts and off-target activity.
Assay [5] deals with Streptococcus. The assay is described as follows: GAS UMAA2166 growth inhibition – luminescence, BacTiterGlo, counter-screen for streptokinase expression inhibitor project, dose response (AID 1915).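 Note: potency for reduction of bacterial viability or growth.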 The format is functional, organism-based.

For orientation: EC50 means the concentration giving half of the maximal effect. What is called IC50 is the concentration at which inhibition is half-maximal.

Turning to `Nc1c2c(nc3ccccc13)CCCC2`, the EC50 in assay [1] is inactive: 92.5 µM; in assay [2], active: 2.66 µM.

Regarding `Cc1cc(C(=O)CN2CCCC2)c(C)n1-c1ccc(F)cc1`, the IC50 in assay [3] was active: 5 µM.

For the molecule `CN(C)C(=N)NC(=N)N` [METFORMIN HYDROCHLORIDE], the figures for the EC50 in assay [4] and in assay [5] were active: 4.08 µM and > 50 µM (not active), respectively.
